Experiments:
RARβ = target: T1, RARβ (Homo sapiens, UniProt P10826); test: Transactivation assay for RAR beta (gal4-RAR fusion, luciferase reporter, COS-7 cells); type: cell-based; details: ratio of test compound EC50 to that of atRA; inactive = no agonist action at the highest concentration tested
T1 construct: gal4 (fusion partner); expressed in transfected cells; host or cells: COS-7
Procedure: (§1) Transcriptional transactivation assays were performed with gal4 fusion receptor constructs, created using each of the RAR ligand binding domains, co-transfected with the pFR-luc (Stratagene™) reporter construct in COS-7 cells.
(§2) Briefly, on day 1, 96 well plates were seeded with 8000 cells per well then left to recover overnight. On day 2, the cells were co-transfected with 100 ng of reporter plasmid and 10 ng of the appropriate receptor plasmid per well using lipofectamine (Invitrogen™). On day 3, the lipofectamine containing media was replaced by a DMEM without phenol red, followed by the addition of test compound dissolved in 1 μL of DMSO to each well's 100 μL total volume. Finally, on day 4, the cells were lysed and their luciferase substrate was provided by the BrightGlo™ reagent (Promega™), the plates were then read on the MicroBeta TriLux™ (Perkin Elmer™).
(§3) Where replicate data has been generated, the data are quoted as a ratio of the mean EC50 from the separate experiments.

By UniProt entry, the sequences of proteins in these tests, tags left out. Residues count along the entry.
UniProt P10826, 183-417 limits assumed, species assumed: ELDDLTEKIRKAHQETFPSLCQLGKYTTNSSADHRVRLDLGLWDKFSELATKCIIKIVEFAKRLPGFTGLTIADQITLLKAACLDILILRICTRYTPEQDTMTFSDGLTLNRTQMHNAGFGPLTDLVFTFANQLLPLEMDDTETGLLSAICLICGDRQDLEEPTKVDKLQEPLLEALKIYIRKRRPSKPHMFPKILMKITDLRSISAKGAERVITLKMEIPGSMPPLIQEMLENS
UniProt P13631, 185-419 limits assumed, species assumed: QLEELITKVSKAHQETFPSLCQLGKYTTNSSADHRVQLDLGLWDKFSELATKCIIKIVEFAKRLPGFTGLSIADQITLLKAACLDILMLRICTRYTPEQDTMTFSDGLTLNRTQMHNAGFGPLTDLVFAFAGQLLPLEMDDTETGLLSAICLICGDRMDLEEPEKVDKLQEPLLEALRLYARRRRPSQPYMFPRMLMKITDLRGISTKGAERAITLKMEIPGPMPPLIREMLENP

RARγ = target: T2, RARγ (Homo sapiens, UniProt P13631); test: Transactivation assay for RAR gamma (gal4-RAR fusion, luciferase reporter, COS-7 cells); type: cell-based; details: ratio of test compound EC50 to that of atRA; inactive = no agonist action at the highest concentration tested
T2 construct: gal4 (fusion partner); expressed in transfected cells; host or cells: COS-7
Procedure: as §1, §2, §3

| Structure (SMILES) | RARβ activity ratio (RARβ) | RARγ activity ratio (RARγ) |
| --- | --- | --- |
| CCOc1c(OC(C)C)cc(C(=O)Nc2ccc(C(=O)O)cc2)cc1OC(C)C [AAA-008, 4-(4-Ethoxy-3,5-diisopropoxybenzamido)benzoic acid] | 4560 | 56900 |
| CC(C)(C)Oc1c(Cl)cc(C(=O)Nc2ccc(C(=O)O)cc2)cc1Cl [AAA-031, 4-(4-(tert-Butoxy)-3,5-dichlorobenzamido)benzoic acid] |  | 6250 |
| O=C(O)c1ccc(NC(=O)c2cc(Cl)c(OC3CCCC3)c(Cl)c2)cc1 [AAA-001, 4-(3,5-Dichloro-4-(cyclopentyloxy)benzamido)benzoic acid] | 342 |  |

Now from value to compound:

| RARβ activity ratio (RARβ) | RARγ activity ratio (RARγ) | Structure (SMILES) |
| --- | --- | --- |
| 103 | 8083 | CCOc1c(Cl)cc(C(=O)Nc2ccc(C(=O)O)cc2)cc1OC(C)C [AAA-078, 4-(3-Chloro-4-ethoxy-5-isopropoxybenzamido)benzoic acid] |
|  | 10833 | COc1c(Cl)cc(C(=O)Nc2ccc(C(=O)O)cc2)cc1OC(C)C [AAA-076, 4-(3-Chloro-5-isopropoxy-4-methoxybenzamido)benzoic acid] |
|  | 1386 | CC(C)Oc1cc(C(=O)Nc2ccc(C(=O)O)cc2)cc(Cl)c1OC(C)C [AAA-050, 4-(3-Chloro-4,5-diisopropoxybenzamido)benzoic acid] |

Source: US9447028B2, “Therapeutic aryl-amido-aryl compounds and their use” (King's College London, priority 2009, dated 2016)
